This passage reports IC50 results from patent US20220125778A1 (priority 2019, published 2022).

The chains behind the UniProt entries cited, without tags or fusion partners. Where a name states a change or a piece, a line headed by the entry shows the natural chain unless it says otherwise.
UniProt P05804: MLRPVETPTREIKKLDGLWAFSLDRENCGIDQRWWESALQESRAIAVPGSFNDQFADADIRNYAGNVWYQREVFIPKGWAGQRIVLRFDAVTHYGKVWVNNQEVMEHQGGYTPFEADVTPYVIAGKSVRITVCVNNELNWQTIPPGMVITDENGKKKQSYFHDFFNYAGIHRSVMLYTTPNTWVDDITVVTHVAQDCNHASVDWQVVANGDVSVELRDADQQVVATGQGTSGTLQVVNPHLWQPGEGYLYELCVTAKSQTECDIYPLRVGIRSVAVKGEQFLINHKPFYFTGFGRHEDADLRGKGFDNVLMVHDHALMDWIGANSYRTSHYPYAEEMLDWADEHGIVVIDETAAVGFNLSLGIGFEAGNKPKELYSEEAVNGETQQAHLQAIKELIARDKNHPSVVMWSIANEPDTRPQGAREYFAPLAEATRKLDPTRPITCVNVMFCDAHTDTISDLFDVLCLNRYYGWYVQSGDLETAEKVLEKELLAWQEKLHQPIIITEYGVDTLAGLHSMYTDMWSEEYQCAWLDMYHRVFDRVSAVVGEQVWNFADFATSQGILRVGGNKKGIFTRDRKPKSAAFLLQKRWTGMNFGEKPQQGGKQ

A value given as a limit tells only on which side of the number the result lay.

In the assay the target is Purified bacterial β-glucuronidases (Purified GUS) (UniProt P05804). Nature of the assay: Purified bacterial β-glucuronidase (Purified GUS) activity assay with PNPG substrate. The assay is classed as biochemical. The conditions noted are these: Table 2.
`Cc1cc(C)c2[nH]c(=O)c(C(C)N(CCO)C(=O)Nc3cccc(C(C)C)c3)cc2c1` (stereo not drawn): the IC50 stood at 6.73 µM. `Cc1cc(C)c2[nH]c(=O)c(CN(CCO)C(=O)Cc3ccccc3C)cc2c1` yielded an IC50 of 4.96 µM.

On to `COc1ccc(Cl)c(NC(=O)N(CCO)Cc2cc3cc(C)cc(C)c3[nH]c2=O)c1`, for which the IC50 was found to be 3.6 µM. The IC50 values of the last two compounds are within 1.5-fold of each other. The compound `Cc1cc(C)c2[nH]c(=O)c(CN(CCO)C(=O)Nc3ccc(C(C)C)cc3)cc2c1` came in with an IC50 of 2.55 µM. As for `Cc1cc(C)c2[nH]c(=O)c(CN(CCO)C(=O)Cc3ccccc3)cc2c1`, the figure is 8.56 µM; as for `Cc1cc(C)c2[nH]c(=O)c(CN(CCO)C(=O)Cc3ccccc3Br)cc2c1` [Ex. 4, 2-(2-bromophenyl)-N-[(6,8-dimethyl-2-oxo-1H-quinolin-3-yl)methyl]-N-(2-hydroxyethyl)acetamide], 0.965 µM.

`Cc1cccc(NC(=O)N(CCO)C(C)c2cc3cc(C)cc(C)c3[nH]c2=O)c1` (stereo not drawn): the IC50 was 1.66 µM.

On to `C#Cc1cc(NC(=O)N(CCO)C(C)c2cc3cc(C)cc(C)c3[nH]c2=O)ccc1F` (stereo not drawn), for which the half-maximal inhibitory concentration (IC50) worked out at 1.1 µM. Against the preceding compound, the IC50 is about 1.5-fold lower. As for `CCOc1ccc(NC(=O)N(CCO)Cc2cc3cc(C)cc(C)c3[nH]c2=O)cc1`, the figure is 2.73 µM; as for `Cc1cc(C)c2[nH]c(=O)c(CN(CCO)C(=O)Nc3ccc(Br)cc3)cc2c1`, 1.8 µM.

Take `Cc1cc(C)c2[nH]c(=O)c(CN(CCO)C(=O)C(C)c3ccccc3Br)cc2c1` (stereo not drawn): the IC50 was determined as 10.9 µM. The compound `Cc1cc(C)c2[nH]c(=O)c(CN(CCO)C(=O)Nc3ccc(OC(F)(F)F)cc3)cc2c1` gave an IC50 of more than 100 µM. Take `O=c1[nH]c2c(Br)cc(Br)cc2cc1CO`: the IC50 was more than 100 µM. Take `COc1ccc(NC(=O)N(CCO)Cc2cc3cc(C)cc(C)c3[nH]c2=O)cc1`: the IC50 came to 2.11 µM. As for `Cc1cc(C)c2[nH]c(=O)c(CN(CCO)C(=O)Nc3ccc(C(F)(F)F)cc3)cc2c1`, the figure is more than 100 µM; as for `Cc1cc(C)c2[nH]c(=O)c(CN(CCO)C(=O)Cc3cccc(S(C)(=O)=O)c3)cc2c1`, 21.9 µM. The compound `COc1ccccc1NC(=O)N(CCO)Cc1cc2cc(C)cc(C)c2[nH]c1=O` gave an IC50 of 2.43 µM. Consider `Cc1cc(C)c2[nH]c(=O)c(CN(CCO)C(=O)Nc3cccc(C(F)(F)F)c3)cc2c1`, for which the IC50 was more than 100 µM.

Consider `Cc1cc(C)c2[nH]c(=O)c(CN(CCO)C(=O)Nc3ccccc3C)cc2c1`, for which the IC50 is 2.17 µM. In other words, the single-digit micromolar range. As for `Cc1cc(C)c2nc(Cl)c(C(C)N(CCO)C(=O)Nc3ccccc3C(C)C)cc2c1` (stereo not drawn), the figure is more than 25 µM; as for `Cc1cc(C)c2[nH]c(=O)c(CN(CCO)S(=O)(=O)Cc3cccc(Br)c3)cc2c1`, 3.26 µM.

For `Cc1cc(C)c2[nH]c(=O)c(CN(CCO)C(=O)Nc3ccccc3C(F)(F)F)cc2c1`, the IC50 is more than 100 µM. As for `Cc1cc(C)c2[nH]c(=O)c(CN(CCO)C(=O)Cc3ccccc3C(C)(C)C)cc2c1`, the figure is 0.905 µM. For the compound `O=Cc1cc2cc(Br)cc(Br)c2[nH]c1=O`, the IC50 was more than 100 µM. Compound `Cc1cc(C)c2[nH]c(=O)c(CN(CCO)C(=O)c3ccccc3Br)cc2c1` displayed an IC50 of 12.8 µM.

With `Cc1cc(C)c2[nH]c(=O)c(CN(CCO)C(=O)c3ccccc3I)cc2c1`, the IC50 is more than 50 µM. Turning to `COc1ccc(Br)c(NC(=O)N(CCO)Cc2cc3cc(C)cc(C)c3[nH]c2=O)c1`, the IC50 is 3.31 µM.

`COc1ccc(Br)c(CC(=O)N(CCO)Cc2cc3cc(C)cc(C)c3[nH]c2=O)c1` [Ex. 12, 2-(2-bromo-5-methoxy-phenyl)-N-[(6,8-dimethyl-2-oxo-1H-quinolin-3-yl)methyl]-N-(2-hydroxyethyl)acetamide] came in with an IC50 of 0.935 µM. Compound `Cc1cc(C)c2[nH]c(=O)c(CN(CCO)C(=O)c3cccc(I)c3)cc2c1` registered an IC50 of more than 50 µM. As for `Cc1cc(C)c2[nH]c(=O)c(CN(CCO)C(=O)Nc3cccc(OC(F)(F)F)c3)cc2c1`, the figure is 24.3 µM; as for `Cc1cc(C)c2[nH]c(=O)c(CN(CCO)C(=O)Nc3c(C)cccc3C)cc2c1`, 0.54 µM; as for `Cc1cc(C)c2[nH]c(=O)c(CN(CCO)C(=O)Cc3ccccc3Cl)cc2c1` [Ex. 8, 2-(2-chlorophenyl)-N-[(6,8-dimethyl-2-oxo-1H-quinolin-3-yl)methyl]-N-(2-hydroxyethyl)acetamide], 0.575 µM. For the compound `COc1ccc(CC(=O)N(CCO)Cc2cc3cc(C)cc(C)c3[nH]c2=O)c(Cl)c1`, the IC50 was determined as 2.87 µM. `COc1cccc(NC(=O)N(CCO)C(C)c2cc3cc(C)cc(C)c3[nH]c2=O)c1` (stereo not drawn): the IC50 is 3.71 µM. The compound `Cc1cc(C)c2[nH]c(=O)c(CN(CCO)C(=O)c3cccc(Br)c3)cc2c1` gave an IC50 of more than 50 µM. `Cc1cc(C)c2[nH]c(=O)c(CN(CCO)C(=O)Cc3ccccc3I)cc2c1` came in with an IC50 of 0.81 µM. That is a sub-micromolar value.
